Results as given in publication PMC9321663, “The DevTox Germ Layer Reporter Platform: An Assay Adaptation of the Human Pluripotent Stem Cell Test” (Toxics, 2022).

Key:
[1] = Table S2; cited from earlier work
[2] = system: SOX17 (endoderm marker) in RUES2-GLR cells; assay: DevTox GLR-Endo assay: decrease in percent SOX17-positive cells (AEID 3094, Sox17_dn)

| Compound | Development Toxicant Classification [1] | Hit Call ([2]; Table S2, SOX17-positive cells, cutoff 3*bmad) | HIT−CALL ([2]; tcpl plot AEID3094, COFF 20.3) |
| --- | --- | --- | --- |
| C=CC(N)=O [Acrylamide] | Negative | – | – |
| COc1cc2ncnc(Nc3ccc(F)c(Cl)c3)c2cc1OCCCN1CCOCC1 [Gefitinib] | – | Positive | 1 |
